System: intracellular pERK
Experiment: Inhibitory effect on intracellular pERK, In-Cell Western, AGS cells
Type: cell-based
Conditions: read-out: Inhibitory effect on intracellular pERK, IC50, 3 h incubation
Text: […]

Q: `C#Cc1c(F)ccc2cc(O)cc(-c3nc(C#C)c4c(N5CC6CCC(C5)N6)nc(OCC56CCCN5CC(F)C6)nc4c3F)c12` (stereo not shown) was tested. Which IC50 did it give?
A: 0.6 nM

Source: patent publication US20250034169A1, “NOVEL PYRIMIDOPYRIDINE COMPOUND, PHARMACEUTICAL COMPOSITION THEREOF, AND USE THEREOF” (SUNSHINE LAKE PHARMA CO., LTD., priority 2021, published 2025)
